Results on 41 compounds are retold here after PubChem BioAssay AID1053197 (The Scripps Research Institute Molecular Screening Center, 2014).

The chains behind the UniProt entries cited, without tags or fusion partners.
UniProt Q9HAT2, whole entry: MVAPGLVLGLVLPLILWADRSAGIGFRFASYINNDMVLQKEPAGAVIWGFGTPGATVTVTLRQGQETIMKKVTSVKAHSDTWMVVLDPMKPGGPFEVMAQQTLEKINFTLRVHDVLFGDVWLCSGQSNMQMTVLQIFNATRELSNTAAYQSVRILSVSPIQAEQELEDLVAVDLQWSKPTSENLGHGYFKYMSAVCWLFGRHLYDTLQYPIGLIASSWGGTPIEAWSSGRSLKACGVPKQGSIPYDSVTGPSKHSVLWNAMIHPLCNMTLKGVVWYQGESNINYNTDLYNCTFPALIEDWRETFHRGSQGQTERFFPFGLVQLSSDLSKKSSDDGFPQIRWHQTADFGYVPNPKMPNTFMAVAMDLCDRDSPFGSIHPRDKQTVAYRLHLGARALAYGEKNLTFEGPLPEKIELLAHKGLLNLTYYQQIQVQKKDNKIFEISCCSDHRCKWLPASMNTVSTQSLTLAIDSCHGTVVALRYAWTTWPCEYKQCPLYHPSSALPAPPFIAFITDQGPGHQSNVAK

This is a selection; strong and weak results do not stand in their true shares. Some salts or complexes appear as unconnected parts, following the source record. The source made the active and inactive calls.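 How the source made its calls: active means inhibition above a cutoff: mean of compounds within the control limits plus 3 SD of those (cut at about 17% in these data); inactive means the rest.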

For the assay, the target named is Sialate O-acetylesterase (Homo sapiens) (UniProt Q9HAT2). Briefly: human SIAE inhibitors, primary screen, biochemical, fluorescence polarization, FP-Rh probe, 1536-well HTS (AID 1053197).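 Further: 0% = plate median of compound wells and 100% = probe without SIAE protein.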 The note with it: SIAE FP-Rh probe binding, at 9.66 µM, hits give high values. Background: Fluorescence polarisation rises when a labelled molecule tumbles more slowly, as on binding a larger partner.
The term inhibition denotes the relative decrease from the control value, in per cent. In the case of `COc1ccccc1OP(C)(=O)Nc1ccc(C)cc1C` (stereo unspecified), the inhibition was inactive: 8.7%.

Turning to `CCc1ccc(OP(C)(=O)O)cc1`, the inhibition was inactive: -0.94%.

For `Cc1c(NP(C)(=O)Oc2ccc(C(C)C)cc2)c(=O)n(-c2ccccc2)n1C` (stereo unspecified), the inhibition is inactive: 2.56%.

For the compound `O=[N+]([O-])c1cc([N+](=O)[O-])c(Nc2ccccn2)c([N+](=O)[O-])c1`, the inhibition was inactive: 0.91%.

Turning to `COc1ccc(OP(C)(=O)Nc2ccccn2)cc1` (stereo unspecified), the inhibition is inactive: 16.7%.

For `CN(C)CCOC(=O)C(O)(c1ccccc1)C1CCCC1` (stereo unspecified), the inhibition is inactive: 3.68%.

Regarding `COc1ccccc1OP(C)(=O)Nc1ccc(Br)cc1` (stereo unspecified), the inhibition was inactive: 2.76%.

`CCCCCCCCCCCCCCCC1C[N+](C)(C)CCOP(C)(=O)O1` (stereo unspecified): the inhibition was inactive: -3.22%.

As for `CP(=O)(Nc1ccc(Cl)cc1Cl)Oc1ccccc1` (stereo unspecified), the inhibition is inactive: -1.04%.

As to `CP(=O)(OCCOc1ccccc1)OCCOc1ccccc1`, the inhibition was inactive: -4.5%.

Regarding `COc1ccccc1OP(C)(=O)Nc1ccc(C)c(C)c1` (stereo unspecified), the inhibition was inactive: -3.34%.

Take `COc1ccc(OP(C)(=O)Nc2ccccc2Br)cc1` (stereo unspecified): the inhibition was inactive: 2.65%.

Regarding `O=C1C(O)=C([N+](=O)[O-])C(=O)C(O)=C1[N+](=O)[O-]`, the inhibition is inactive: 7.86%.

Turning to `Cc1cc(C)cc(OP(C)(=O)Nc2cccc(C(F)(F)F)c2)c1` (stereo unspecified), the inhibition is inactive: -7.95%.

On to `CP(=O)(Nc1ccccc1)Oc1ccc(F)cc1` (stereo unspecified), for which the inhibition is inactive: -4.14%.

Turning to `CCCCCOc1ccc(NP(C)(=O)Oc2ccc(Cl)cc2Cl)cc1` (stereo unspecified), the inhibition is inactive: -3.92%.

Consider `O=[N+]([O-])c1cc([N+](=O)[O-])c(OC2CCCCC2O)c([N+](=O)[O-])c1` (stereo unspecified), for which the inhibition is inactive: 0.99%.

For `Cc1c([N+](=O)[O-])cc([N+](=O)[O-])c(Br)c1[N+](=O)[O-]`, the inhibition was inactive: -2.83%.

`CCN(CC)CCCOC(=O)C(O)(c1ccccc1)C1CCCCC1` (stereo unspecified): the inhibition was inactive: 1.16%.

`CCOC(=O)c1ccc(NP(C)(=O)Oc2ccc(F)cc2)cc1` (stereo unspecified): the inhibition was inactive: -6.02%.

As to `COc1ccc(OP(C)(=O)Nc2ccc(SC(F)(F)F)cc2)cc1` (stereo unspecified), the inhibition was inactive: -3.57%.

As to `CCN(CC)CCCNc1ccccc1[N+](=O)[O-].O=[N+]([O-])c1cc([N+](=O)[O-])c(O)c([N+](=O)[O-])c1`, the inhibition is inactive: -6.44%.

Take `COc1ccc2c(c1O)-c1c(O)c(OC)cc3c1[C@H](C2)[N+](C)(C)CC3.O=[N+]([O-])c1cc([N+](=O)[O-])c([O-])c([N+](=O)[O-])c1[O-]`: the inhibition was inactive: 3.62%.

Take `O=C(OC1CN2CCC1CC2)c1ccc([N+](=O)[O-])cc1` (stereo unspecified): the inhibition is inactive: 0.62%.

In the case of `O=C(OCCN1CCN(CCOCc2ccccc2)CC1)C(O)(c1ccccc1)c1ccccc1`, the inhibition was inactive: -2.33%.

With `CP(=O)(Nc1ccccc1F)Oc1ccccc1` (stereo unspecified), the inhibition is inactive: 4.4%.

Turning to `CC(C)c1ccc(OP(C)(=O)Nc2ccc(SC(F)(F)F)cc2)cc1` (stereo unspecified), the inhibition was inactive: 2.79%.

For `O=[N+]([O-])c1cc([N+](=O)[O-])c(Nc2ccc(Cl)cc2)c([N+](=O)[O-])c1`, the inhibition was inactive: 6.82%.

For `Cc1ccccc1NP(C)(=O)Nc1ccccc1C`, the inhibition was inactive: -7.17%.

On to `O=[N+]([O-])c1cc([N+](=O)[O-])c(C(F)(F)F)c([N+](=O)[O-])c1O`, for which the inhibition was inactive: -4.13%.

Turning to `CP(=O)(Nc1ccc2c(c1)OCCO2)Oc1ccccc1` (stereo unspecified), the inhibition is inactive: -4.31%.

As for `CCOP(C)(=S)SCC(=O)NC(C)(CC)C(=O)O` (stereo unspecified), the inhibition is inactive: 0.32%.

For `CCOP(=O)(CC)OCC`, the inhibition is inactive: -1.4%.

For the compound `CP(=O)(Nc1ccc(SC(F)(F)F)cc1)Oc1ccc(F)cc1` (stereo unspecified), the inhibition was inactive: 1.75%.

For the compound `Cc1c(C(c2ccc3c(c2)OCO3)c2c(C)n(C)n(-c3ccccc3)c2=O)c(=O)n(-c2ccccc2)n1C.O=[N+]([O-])c1cc([N+](=O)[O-])c(O)c([N+](=O)[O-])c1`, the inhibition was inactive: 8.19%.

On to `O=[N+]([O-])c1ccc(OP2(=O)COCCO2)cc1` (stereo unspecified), for which the inhibition is inactive: -1.13%.

As for `O=[N+]([O-])c1cc([N+](=O)[O-])c(NCC2CCS(=O)(=O)C2)c([N+](=O)[O-])c1` (stereo unspecified), the inhibition was inactive: 1.23%.

With `Cc1cc(-c2cccc3ccccc23)c(C)cn1.O=[N+]([O-])c1cc([N+](=O)[O-])c(O)c([N+](=O)[O-])c1`, the inhibition was inactive: 1.04%.

Consider `CN(C)CCOC(=O)C(O)(c1ccccc1)C1CCCCC1` (stereo unspecified), for which the inhibition is inactive: -7.61%.

With `COc1ccc(NP(C)(=O)Oc2ccccc2OC)cc1` (stereo unspecified), the inhibition was inactive: 9.36%.

Take `COc1ccc(OP(C)(=O)Nc2cccc(Br)c2)cc1` (stereo unspecified): the inhibition was inactive: -2.3%.
